## AlphaSeq binding of Ab-91 heavy chain variants to a spike HR2 peptide

Target: peptide PDVDLGDISGINAS, taken from heptad repeat 2 (HR2) of SARS-CoV-2 spike.

Parent: Ab-91, a human scFv built as VL, the linker GGGGSGGGGSGGGGS, VH. Only the CDRs of the heavy chain vary.
VL: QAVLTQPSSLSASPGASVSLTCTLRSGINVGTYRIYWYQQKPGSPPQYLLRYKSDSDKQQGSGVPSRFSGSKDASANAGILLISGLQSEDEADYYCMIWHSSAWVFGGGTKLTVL
VH: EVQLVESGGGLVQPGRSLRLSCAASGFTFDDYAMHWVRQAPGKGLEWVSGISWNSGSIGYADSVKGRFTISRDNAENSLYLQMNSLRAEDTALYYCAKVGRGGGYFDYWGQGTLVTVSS

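The parent was found by panning a naive human phage display library on the peptide. In library AAYL51, one, two or three CDR residues were substituted; doubles and triples were drawn at random. In AlphaSeq, yeast of one mating type display the scFv and yeast of the other type display the target. The frequency of each diploid, read from paired DNA barcodes, reflects how well the two displayed proteins bind. Each replicate has its own calibration line, from reference interactions of the BCL2 family. Each pool was mated in three replicate cultures.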

The parent's heavy chain CDRs are GFTFDDYAMH, GISWNSGSIGYADSVK, VGRGGGYFDY; each variant's own CDRs replace them letter for letter.
Scale: log10 of Kd in nM, estimated from mating counts; low values are strong binders.
Replicates are averaged; those with no signal do not enter the mean.
A pair that was not seen in that replicate is written "nd"; this usually means weak binding, but a binder can also be missed.
Nonspecific signal, from three strains lacking the peptide, appeared in 21% of pairings of library AAYL51, centred on 4.54 (5% of these signals below 3.26); values are not corrected for it. For each scFv, signals with the empty controls are counted beside the result.

The variant GFTFDPYAMH | QISWNSGSIGYADSVA | VGRGGGYFDY showed 3.87, nd, nd (controls 0 of 9).
The variant PFTFDDYAMH | GISWNSGSIQYADSVK | VGRGGGYFPY showed 4.31, nd, nd (controls 2 of 9).
The variant GFTFDNYAMH | GISWNSGSIGYVDSVK | VGRGGGYFDY showed 0.94, 0.83, 0.35 (mean 0.71; controls 4 of 9).
The variant GFTFDDYAMH | SIIWNSGSIKYADSVK | VGRGGGYFDY showed nd, 3.34, nd (controls 0 of 9).
The variant GFTFDDYADH | GISWNSGSRGYADSVK | VGRGGGYFDY showed nd, 5.02, nd (controls 2 of 9).
The variant GFTFDDYAMH | GISWNSGSIGYADSVK | VGRGVGYADY showed nd, nd, nd (controls 0 of 9).
The variant HFTFDDYAMH | GISWNSGSIIYADSVK | VGRGSGYFDY showed nd, nd, 2.32 (controls 1 of 9).
The variant GFTFDDYAMH | GISLNTGSIGYADSVK | VGRGGGYFDY showed nd, nd, nd (controls 1 of 9).
The variant GFVFDDYASH | GISWNSGSIGYADSVK | VGWGGGYFDY showed 4.48, nd, nd (controls 2 of 9).
The variant GFTFDDYAMH | GISWNSGWILYADSVK | VGRGGGYFDY showed 5.67, 4.97, nd (mean 5.32; controls 6 of 9).
The variant HFTFDDYAMH | GISWNSGSIGYADSVK | VGRHGGYFEY showed nd, nd, nd (controls 0 of 9).
The variant RFTFDDYPMH | GISWNSGSINYADSVK | VGRGGGYFDY showed nd, nd, nd (controls 2 of 9).
The variant FFTFDDYAMH | GISWNSGSIGYADSVK | VGRGGGYFRY showed 6.02, nd, nd (controls 4 of 9).
The variant GFTFDDYAMH | GISWNSGSIGYADSVK | VGRGGPYVDP showed 5.01, nd, 5.34 (mean 5.18; controls 3 of 9).
The variant GFTFDDYAMH | GISWNSGSIGYADSLK | SGRGGTYFDY showed nd, nd, 5.21 (controls 3 of 9).
The variant DFTFDDYAMH | GISWNSGSIGYADSTV | VGRGGGYFDY showed 5.03, 3.73, nd (mean 4.38; controls 4 of 9).
The variant GFTFDDYAML | GISWNSGSITYADSVK | DGRGGGYFDY showed nd, nd, nd (controls 0 of 9).
The variant GFTFDDYAAH | GISWNSGSIGYADAVK | VGRGGGNFDY showed nd, nd, nd (controls 1 of 9).
The variant GFTFDDYAMH | GSWWNSGSIGYADSVK | VGRGGGDFDY showed 3.37, nd, nd (controls 1 of 9).
The variant GFTFDDYAMH | GIPHNSGSIGYAQSVK | VGRGGGYFDY showed nd, nd, nd (controls 0 of 9).
The variant GFTFDDTPMH | GISWNSGSIGMADSVK | VGRGGGYFDY showed 4.28, 5.18, 4.65 (mean 4.70; controls 8 of 9).
The variant GFTFDDYANH | GISWNSGSIGYADSKK | VGRGGEYFDY showed 5.29, 5.48, 5.77 (mean 5.51; controls 3 of 9).
The variant GFTFDMYAMH | GIHWNSGSTGYADSVK | VGRGGGYFDY showed 4.21, nd, nd (controls 3 of 9).
The variant GFTFWDYQMH | GISWNSGSIGYADSVK | VGRYGGYFDY showed 6.53, nd, 4.09 (mean 5.31; controls 4 of 9).
The variant GFTFDDYAMQ | GISWNSGSIGYADSVK | VGRGGHVFDY showed 4.58, nd, nd (controls 1 of 9).
The variant GFTFDVCAMH | GISWNSGSIGYADMVK | VGRGGGYFDY showed 4.05, nd, 4.40 (mean 4.22; controls 0 of 9).
The variant GFTFRDYGMH | GISWNSGSIGYADSVK | VGRGGGYHDY showed 0.08, 0.01, -0.77 (mean -0.23; controls 9 of 9).
The variant GFTFDYYAMH | GIQWNSRSIGYADSVK | VGRGGGYFDY showed nd, nd, 2.32 (controls 1 of 9).
The variant GFTFDDYYMH | GISWNSGSISYAASVK | VGRGGGYFDY showed 6.23, 6.38, 5.25 (mean 5.95; controls 5 of 9).
The variant GFTFDDYCMH | GISWNSGSIGYADSVK | VGRGGGYFDY showed 4.50, nd, 4.99 (mean 4.74; controls 6 of 9).
The variant GCTFDDYAMH | GIWWNSGSIGYADSVK | VGRGGGYFDA showed nd, nd, nd (controls 0 of 9).
The variant EFTFDDYASH | GISMNSGSIGYADSVK | VGRGGGYFDY showed nd, nd, nd (controls 2 of 9).
The variant GFTFWDYAMH | GISWNSGSIGYADSVW | VGRGGGNFDY showed nd, nd, nd (controls 0 of 9).
The variant GFTFDDYAKH | GISWNSWSIGYADNVK | VGRGGGYFDY showed nd, nd, nd (controls 1 of 9).
The variant GFTFDDYAMH | GIEWNSGSIGYADSVN | VGRGGGYFFY showed nd, nd, nd (controls 1 of 9).
The variant GFTSDDYAMH | GISWNSGSIGPMDSVK | VGRGGGYFDY showed 4.55, nd, nd (controls 1 of 9).
The variant GFTFDDYAMI | GISWNSGSIGYADSVK | VGFGGNYFDY showed 4.50, nd, nd (controls 0 of 9).
The variant GFTFDTYAMH | GISWNSGSIGYADSVY | VGRGGGLFDY showed 3.87, nd, nd (controls 0 of 9).
The variant GFQFDDYAMH | GISWNSGSIGYKDSVK | VGRGGMYFDY showed nd, nd, nd (controls 1 of 9).
The variant GFTFDDYSMH | GISWNSGSIGYADSVK | VGRGGGYLDY showed 0.89, 1.08, 0.27 (mean 0.75; controls 2 of 9).
The variant GFTFDDAAMH | GGSWNSGSIGEADSVK | VGRGGGYFDY showed nd, nd, nd (controls 1 of 9).
The variant GFTFDDYAMH | GISWNSGSIRYGDSLK | VGRGGGYFDY showed nd, nd, nd (controls 5 of 9).
The variant GFGFDDYAMH | GISNNSGSIGVADSVK | VGRGGGYFDY showed 6.25, nd, 5.28 (mean 5.77; controls 5 of 9).
The variant GFTFDDYKMH | GISWCSGSIGYAPSVK | VGRGGGYFDY showed nd, nd, 4.19 (controls 3 of 9).
The variant TFRIDDYAMH | GISWNSGSIGYADSVK | VGRGGGYFDY showed nd, nd, nd (controls 1 of 9).
The variant GFTFDDCATH | GISWNSWSIGYADSVK | VGRGGGYFDY showed 5.50, 6.18, nd (mean 5.84; controls 3 of 9).
The variant GFPFDDYAMH | GISWNFGSIGYADSVK | VGRGGGYFDY showed nd, nd, nd (controls 0 of 9).
The variant GFTFDDYAMH | GISWNSGSEGYADSWK | VWRGGGYFDY showed nd, 4.76, nd (controls 2 of 9).
The variant GFTFDDYARH | VISWNSGSIGYADSVK | VGRNGGYFDY showed nd, 3.72, nd (controls 0 of 9).
The variant GFTFDDYAMH | GISWNFGEIGYADSVK | VGRGAGYFDY showed nd, nd, nd (controls 0 of 9).

Picked from the list: the 6 lowest averages where every replicate gave a value.

With GFTFRDYGMH | GISWNSGSIGYADSVK | VGRGGGYHDY the result was 0.08, 0.01, -0.77 (mean -0.23; controls 9 of 9).
With GFTFDNYAMH | GISWNSGSIGYVDSVK | VGRGGGYFDY the result was 0.94, 0.83, 0.35 (mean 0.71; controls 4 of 9).
With GFTFDDYSMH | GISWNSGSIGYADSVK | VGRGGGYLDY the result was 0.89, 1.08, 0.27 (mean 0.75; controls 2 of 9).
With GFTFDDTPMH | GISWNSGSIGMADSVK | VGRGGGYFDY the result was 4.28, 5.18, 4.65 (mean 4.70; controls 8 of 9).
With GFTFDDYANH | GISWNSGSIGYADSKK | VGRGGEYFDY the result was 5.29, 5.48, 5.77 (mean 5.51; controls 3 of 9).
With GFTFDDYYMH | GISWNSGSISYAASVK | VGRGGGYFDY the result was 6.23, 6.38, 5.25 (mean 5.95; controls 5 of 9).

Reference: Engelhart et al. 2022, doi:10.1038/s41597-022-01779-4. File: FLAb, binding data.